The record followed here is BindingDB's records for 3746817.

Sequences of proteins named here, by UniProt entry; tags and fusion partners are left off. Residues count along the entry.
UniProt P22303, 32-614 limits assumed: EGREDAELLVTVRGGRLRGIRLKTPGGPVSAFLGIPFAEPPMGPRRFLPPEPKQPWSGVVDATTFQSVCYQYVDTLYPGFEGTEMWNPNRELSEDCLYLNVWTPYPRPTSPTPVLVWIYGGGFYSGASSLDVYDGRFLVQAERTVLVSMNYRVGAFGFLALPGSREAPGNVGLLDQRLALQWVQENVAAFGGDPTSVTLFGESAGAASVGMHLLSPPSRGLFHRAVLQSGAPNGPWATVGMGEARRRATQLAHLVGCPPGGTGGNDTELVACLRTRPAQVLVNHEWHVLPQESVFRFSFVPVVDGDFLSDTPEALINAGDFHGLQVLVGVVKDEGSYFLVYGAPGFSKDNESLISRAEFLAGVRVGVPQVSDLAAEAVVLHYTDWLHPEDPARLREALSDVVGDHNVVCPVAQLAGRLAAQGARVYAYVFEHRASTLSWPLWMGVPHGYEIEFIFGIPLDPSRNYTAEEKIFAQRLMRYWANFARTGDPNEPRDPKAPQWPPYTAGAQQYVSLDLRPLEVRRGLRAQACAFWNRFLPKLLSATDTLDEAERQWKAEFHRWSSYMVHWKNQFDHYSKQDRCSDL

This assay concerns the target Acetylcholinesterase (Homo sapiens, UniProt P22303). In words: ASSAY_NAME: ChEBML_28147 DESCRIPTION: Reversible inhibition of Human AchE.

As to `CCN(CC)CCSC(N=O)C(=O)c1ccc(Br)cc1` (centres undefined), inhibition was half-maximal at 210 µM (IC50).

`CCN(CC)CCSC(N=O)C(=O)c1ccccc1` (centres undefined) returned an IC50 of over 1000 µM.

The molecule `CN(C)CCSC(N=O)C(=O)c1ccc(Br)cc1` (centres undefined) registered an IC50 of 710 µM.

Consider `Cc1ccc(C(=O)C(N=O)SCCN(C)C)cc1` (centres undefined), for which the IC50 was over 1000 µM.

`CC[N+](C)(CC)CCSC(N=O)C(=O)c1ccc(F)cc1` (centres undefined) returned an IC50 of 720 µM.

`CC[N+](C)(CC)CCSC(N=O)C(=O)c1ccc(C#N)cc1` (centres undefined) gave an IC50 of over 1000 µM.

The molecule `COc1ccc(C(=O)C(N=O)SCCN(C)C)cc1` (centres undefined) yielded an IC50 of over 1000 µM.

In turn, `C[N+](C)(C)CCSC(N=O)C(=O)c1ccc(Br)cc1` (centres undefined) yielded a 50% inhibitory concentration (IC50) of over 1000 µM.

Molecule `CN(C)CCCSC(N=O)C(=O)c1ccc(Br)cc1` (centres undefined) registered an IC50 of over 1000 µM.

With `C[N+](C)(C)CCSC(N=O)C(=O)c1ccc(F)cc1` (centres undefined), the IC50 was over 1000 µM.

As for `CCN(CC)CCSC(N=O)C(=O)c1ccc(Cl)cc1` (centres undefined), the IC50 is 520 µM.

`CCN(CC)CCSC(N=O)C(=O)c1ccc(OC)cc1` (centres undefined) yielded an IC50 of 260 µM.

In the case of `COc1ccc(C(=O)C(N=O)SCC[N+](C)(C)C)cc1` (centres undefined), the IC50 is over 1000 µM.

Regarding `CC[N+](C)(CC)CCSC(N=O)C(=O)c1ccc(Cl)cc1` (centres undefined), the IC50 is over 1000 µM.

Molecule `Cc1ccc(C(=O)C(N=O)SCC[N+](C)(C)C)cc1` (centres undefined) registered an IC50 of over 1000 µM.

Turning to `CCN(CC)CCSC(N=O)C(=O)c1ccc(C#N)cc1` (centres undefined), inhibition was half-maximal at 180 µM (IC50).

As for `CN(C)CCSC(N=O)C(=O)c1ccc(Cl)cc1` (centres undefined), the IC50 was over 1000 µM.

The molecule `CC(C)N(CCSC(N=O)C(=O)c1ccc(Cl)cc1)C(C)C` (centres undefined) had an IC50 of 330 µM.

In turn, `CC[N+](C)(CC)CCSC(N=O)C(=O)c1ccc(OC)cc1` (centres undefined) returned an IC50 of over 1000 µM.
